Test results as given in US20220349880.

Key:
[1] = tested on: Peptide H-15: H2N-(CH2)4-CO-Pro-Leu-Ala-Phe-Val-Ala-NH-CH2-Fc
[2] = tested on: Peptide H-16: H2N-(CH2)4-CO-Pro-Leu-Ala-Gly-Val-Ala-NH-CH2-Fc
[3] = tested on: Peptide H-3: H2N-(CH2)4-CO-Pro-Leu-Arg-Phe-Gly-Ala-NH-CH2-Fc

**Q.** How did the 1/τ, non-activated 5% HS in 0.5X PB spiked with 1.0 nM non-activated rhCB (0.40 nM naturally active) [1] turn out when “recombinant human cathepsin B (rhCB), non-activated (~60% 37 kDa proenzyme and ~40% 29 kDa mature enzyme)” was run?
**A.** The 1/τ, non-activated 5% HS in 0.5X PB spiked with 1.0 nM non-activated rhCB (0.40 nM naturally active) was 0.0013 s⁻¹.

**Q.** Which “cathepsin B activity (1/τ), activated 5% HS in 0.5X PB, 8 channels” value [1] does the source give for “intrinsic cathepsin B in pooled human serum (HS), activated with DTT in MES (pH 5.0)” here?
**A.** Its value is “(33.2±3.0)×10^-4 s^-1”.

**Q.** What does the source list for “intrinsic cathepsin B in pooled human serum (HS), non-activated”?
**A.** 1/τ, non-activated 5% HS in 0.5X PB (unspiked sample of the spiking study) [1]: 0.00121 s⁻¹; cathepsin B activity (1/τ), non-activated 5% HS in 0.5X PB, 8 channels [1]: 0.00122 s⁻¹

**Q.** “recombinant human cathepsin B (rhCB), activated by incubation in 25 mM MES buffer (pH 5.0) containing 5 mM DTT for 15 min” was tested. Which 1/τ (inverse exponential decay time constant of the ACV peak current = protease activity), 6.0 nM cathepsin B, MES pH 5.0, channel 1 [1] did it give?
**A.** The 1/τ (inverse exponential decay time constant of the ACV peak current = protease activity), 6.0 nM cathepsin B, MES pH 5.0, channel 1 was 0.00055 s⁻¹.

**Q.** And the “1/τ at saturation, activated rhCB above 1.0 nM in 0.5X PB (pH 7.4)” value [1]?
**A.** Its value is “saturated at about 45×10^-4 s^-1 when the rhCB concentration is above 1.0 nM”.

**Q.** What about the 1/τ, 6.0 nM cathepsin B, MES pH 5.0, average of channels 1-6 [1] of the same substance?
**A.** The 1/τ, 6.0 nM cathepsin B, MES pH 5.0, average of channels 1-6 was 0.000663 s⁻¹.

**Q.** And the 1/τ, 6.0 nM cathepsin B, MES pH 5.0, channel 2 [1]?
**A.** Its 1/τ, 6.0 nM cathepsin B, MES pH 5.0, channel 2 is 0.000734 s⁻¹.

**Q.** And the 1/τ, 6.0 nM cathepsin B, MES pH 5.0, channel 3 [1]?
**A.** Its 1/τ, 6.0 nM cathepsin B, MES pH 5.0, channel 3 is 0.000588 s⁻¹.

**Q.** What about the 1/τ, 6.0 nM cathepsin B, MES pH 5.0, channel 4 [1] of the same substance?
**A.** Its 1/τ, 6.0 nM cathepsin B, MES pH 5.0, channel 4 is 0.000684 s⁻¹.

**Q.** What about the 1/τ, 6.0 nM cathepsin B, MES pH 5.0, channel 5 [1] of the same substance?
**A.** The 1/τ, 6.0 nM cathepsin B, MES pH 5.0, channel 5 was 0.000779 s⁻¹.

**Q.** And the 1/τ, 6.0 nM cathepsin B, MES pH 5.0, channel 6 [1]?
**A.** Its 1/τ, 6.0 nM cathepsin B, MES pH 5.0, channel 6 is 0.000645 s⁻¹.

**Q.** And the 1/τ, 6.0 nM cathepsin B, MES pH 5.0, multi-peptide MEA, average of channels 4-6 [1]?
**A.** Its 1/τ, 6.0 nM cathepsin B, MES pH 5.0, multi-peptide MEA, average of channels 4-6 is 0.000679 s⁻¹.

**Q.** And the 1/τ, 6.0 nM cathepsin B, MES pH 5.0, multi-peptide MEA, channel 4 [1]?
**A.** The 1/τ, 6.0 nM cathepsin B, MES pH 5.0, multi-peptide MEA, channel 4 was 0.000582 s⁻¹.

**Q.** And the 1/τ, 6.0 nM cathepsin B, MES pH 5.0, multi-peptide MEA, channel 5 [1]?
**A.** The 1/τ, 6.0 nM cathepsin B, MES pH 5.0, multi-peptide MEA, channel 5 was 0.000889 s⁻¹.

**Q.** What about the 1/τ, 6.0 nM cathepsin B, MES pH 5.0, multi-peptide MEA, channel 6 [1] of the same substance?
**A.** The 1/τ, 6.0 nM cathepsin B, MES pH 5.0, multi-peptide MEA, channel 6 was 0.000566 s⁻¹.

**Q.** And the “1/τ, non-activated 5% HS in 0.5X PB spiked with 1.0 nM activated rhCB” value [1]?
**A.** The value was “(68.4±7.53)×10^-4 s^31 1”.

**Q.** And the “average activity (1/τ), 1.0 nM activated cathepsin B in 25 mM MES buffer (pH 5.0)” value [1]?
**A.** Its value is “(1.21±0.46)×10^-4 s^-1”.

**Q.** And the “average measured activity (1/τ), 1.0 nM activated cathepsin B in 0.5X PB (pH 7.4), 8 channels” value [1]?
**A.** Its value is “(42.1±3.7)×10^-4 s^-1”.

**Q.** What about the “inverse decay constant (1/τ), 1.0 nM activated cathepsin B in 0.2X PBS (pH 7.4)” value [1] of the same substance?
**A.** The value was “(7.65±0.42)×10^-4 s^-1”.

**Q.** And the “inverse decay constant (1/τ), 1.0 nM activated cathepsin B in 0.5X PBS (pH 7.4)” value [1]?
**A.** Its value is “(11.44±0.64)×10^-4 s^-1”.

**Q.** What about the “inverse decay constant (1/τ), 1.0 nM activated cathepsin B in 1X PBS (pH 7.4)” value [1] of the same substance?
**A.** The value was “(4.2±1.1)×10^-4 s^-1”.

**Q.** What about the “specificity constant kcat/KM (slope of 1/τ against [rhCB], 0 to 1.0 nM, 0.5X PB pH 7.4)” value [1] of the same substance?
**A.** The value was “kcat/KM=(3.89±0.28)×10^6 M^-1s^-1”.

**Q.** And the 1/τ, 6.0 nM cathepsin B, MES pH 5.0, multi-peptide MEA, average of channels 1-3 [2]?
**A.** Its 1/τ, 6.0 nM cathepsin B, MES pH 5.0, multi-peptide MEA, average of channels 1-3 is 0.00089 s⁻¹.

**Q.** What about the 1/τ, 6.0 nM cathepsin B, MES pH 5.0, multi-peptide MEA, channel 1 [2] of the same substance?
**A.** Its 1/τ, 6.0 nM cathepsin B, MES pH 5.0, multi-peptide MEA, channel 1 is 0.000783 s⁻¹.

**Q.** What about the 1/τ, 6.0 nM cathepsin B, MES pH 5.0, multi-peptide MEA, channel 2 [2] of the same substance?
**A.** Its 1/τ, 6.0 nM cathepsin B, MES pH 5.0, multi-peptide MEA, channel 2 is 0.000888 s⁻¹.

**Q.** And the 1/τ, 6.0 nM cathepsin B, MES pH 5.0, multi-peptide MEA, channel 3 [2]?
**A.** The 1/τ, 6.0 nM cathepsin B, MES pH 5.0, multi-peptide MEA, channel 3 was 0.001 s⁻¹.

**Q.** What about the 1/τ, 6.0 nM cathepsin B, MES pH 5.0, multi-peptide MEA, average of channels 7-9 [3] of the same substance?
**A.** Its 1/τ, 6.0 nM cathepsin B, MES pH 5.0, multi-peptide MEA, average of channels 7-9 is 0.000736 s⁻¹.

**Q.** What about the 1/τ, 6.0 nM cathepsin B, MES pH 5.0, multi-peptide MEA, channel 7 [3] of the same substance?
**A.** Its 1/τ, 6.0 nM cathepsin B, MES pH 5.0, multi-peptide MEA, channel 7 is 0.000734 s⁻¹.

**Q.** And the 1/τ, 6.0 nM cathepsin B, MES pH 5.0, multi-peptide MEA, channel 8 [3]?
**A.** The 1/τ, 6.0 nM cathepsin B, MES pH 5.0, multi-peptide MEA, channel 8 was 0.000826 s⁻¹.

**Q.** What about the 1/τ, 6.0 nM cathepsin B, MES pH 5.0, multi-peptide MEA, channel 9 [3] of the same substance?
**A.** Its 1/τ, 6.0 nM cathepsin B, MES pH 5.0, multi-peptide MEA, channel 9 is 0.000648 s⁻¹.
